Test results from US6713477B1, “Hydroxamic acid derivatives” (Sumitomo Pharmaceuticals Company, Limited, priority 2000, dated 2004).

Chains of the proteins cited; added tags and fusions are not shown. Residues count along the entry.
UniProt P08254, 100-272 limits assumed: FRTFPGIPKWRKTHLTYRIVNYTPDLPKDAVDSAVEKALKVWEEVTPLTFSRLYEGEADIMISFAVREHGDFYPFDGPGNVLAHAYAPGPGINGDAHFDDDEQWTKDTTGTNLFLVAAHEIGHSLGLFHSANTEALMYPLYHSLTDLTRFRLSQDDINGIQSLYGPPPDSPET

What was measured:
[1] = target: MMP-3 (Matrix Metalloproteinase-3, Stromelysin-1) (Homo sapiens, UniProt P08254); assay: Inhibition assay against MMP-3 (fluorescent MCA-labeled substrate); details: read-out: IC50 MMP3; Table 10; active MMP at 20 nM, 37° C., 1.5 hours
Method: C-terminal truncated form of human prostromelysin cDNA (proMMP-3, cDNA sequence in Nature, 348, 699-704 (1990)) was subcloned, expressed in E.coli and purified as described previously (Biochemistry 30, 6476-6483 (1991)). Activation of proMMP-3 was achieved by treatment with 1 mM 4-aminophenylmercuric acetate at 37° C. for 60 min.
Enzymatic assays were performed in accordance with C. G. Knight's method (FEBS Lett., 296(3), 263-266 (1992)). The fluorescent MCA-labeled substrate, (7-methoxycumaline-4-yl)-Pro-Leu-Gly-Leu-L-[N-(2,4-dinitrophenyl)-L-2,3-diaminopropionyl]-Ala-Arg-NH2 (Peptide Institute. Inc.) was used for measuring the kinetics of inhibition for each tested compound.
(§1) The substrate was incubated at 37° C. for 1.5 hours (MMP-1; for 24 hours) with active MMP (at 20 nM, except MMP-13 at 5 nM) and a test compound in assay buffer containing 100 mM Tris-HCl (pH7.5), 10 mM CaCl2, 100 MM NaCl and 0.05% Brij-35. After the mixture was plated at 100 μL/well onto a 96-well microtiter plate and incubated at 37° C., enzymatic activity in the presence of the compound was estimated by measuring the fluorescence intensity (λex 320 nm, λem 405 nm) and IC50 was determined.

[2] = target: MMP-13 (Matrix Metalloproteinase-13, Collagenase-3) (Homo sapiens, UniProt P45452); assay: Inhibition assay against MMP-13 (fluorescent MCA-labeled substrate); type: biochemical; details: read-out: IC50 MMP13; Table 10; active MMP-13 at 5 nM, 37° C., 1.5 hours
From the text: To subclone C-terminal truncated form of procollagenase-3 (proMMP-13) cDNA (J.Biol.Chem., 269(24), 16766-16773 (1994)), two synthetic oligonucleotide primer (5′-[…]-3′ and 5′-[…]-3′: the former incorporates sequences for a unique NdeI site (underlined) including initial methionine, and the latter has sequences for a stop codon and BamHI site (underlined)) were used with human chondrocyte cDNA library (CLONTECH) in PCR. With these primers and Pfu DNA polymerase (STRATAGENE) in PCR, 767 bp fragment was generated, which encodes 84 amino acid prosequence and 164 amino acids of mature MMP-13. The fragment was digested with NdaI and BamHI, ligated into the NdeI and BamHI sites of pET11a (STRATAGENE), transformed in E.coli BL21 (DE3) and cultured. The crude cell extract was prepared as described in Biochemistry. […]
as §1

Q: With `COc1ccc(C2SCC(=O)N2C(CC(C)C)C(=O)NO)cc1` (centres unmarked) as the molecule, how does the IC50 [1] read?
A: 794 nM

Q: What about the IC50 [2] of the same molecule?
A: 48 nM
